Test system: HPV- (SCC19, SCC29) and HPV+ (SCC47, SCC104, SCC152) HNSCC cell lines
Assay: Sensitization of HNSCC cell lines to photon radiation
Type: cell-based
Conditions: radiation 0-4Gy followed by inhibitor; DER10
Description: FIGS. 11A-11D are graphical representations of the radio-response of HPV^− cell lines (SCC19 and SCC29) and HPV^+ cell lines (SCC47 and SCC104) when subject to photon radiation followed by treatment with either the vehicle alone or cisplatin (CCDP), as measured by MTT assays. The dose enhancement ratio for 10% survival (DER10) was calculated as follows: DER10=(Dose correlated with 10% survival fraction in radiation-treated cells)/(Dose correlated with 10% survival fraction in radiation and inhibitor treated cells). […] FIGS. 11E-12H are graphical representations of the radio-response of HPV^− cell lines (SCC19 and SCC29) and HPV^+ cell lines (SCC47 and SCC104) when subject to photon radiation followed by treatment with either the vehicle alone or cetuximab, as measured by MTT assays.
CCDP, Cetuximab, and GA-OH were evaluated for their ability to sensitize HNSCC cell lines to photon radiation. […]
Colonies were counted after 14-21 days and normalized to vehicle control and survival analysis was performed. FIGS. 11A-11D are graphical representations of the radio-response of HPV^− cell lines (SCC19 and SCC29) and HPV^+ cell lines (SCC47 and SCC104) when subject to photon radiation followed by treatment with either the vehicle alone or cisplatin (CCDP), as measured by MTT assays. […]
Sensitization of an additional HPV^+ cell line to radiation by CDDP, Cetuximab and GA-OH was evaluated. […]

cetuximab: an anti-EGFR monoclonal antibody [reference compound]
sensitization to photon radiation: least sensitization
